# Antibody variant affinities, Ab-14 heavy chain, assay B

Source: Li et al. 2023 (doi:10.1038/s41467-023-39022-2), MIT Lincoln Laboratory and A-Alpha Bio; data file from the FLAb repository.

Binding partner: SARS-CoV-2 spike HR2 peptide, sequence PDVDLGDISGINAS.

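The parent was found by panning a naive human phage display library on the peptide. These sequences belong to a second round, designed from the earlier measurements on random variants of the parent. Several design methods are mixed in this list. The assay is AlphaSeq: two haploid yeast populations carry antibody and antigen on their surface. Binding brings cells together so that they mate, and sequencing counts the barcode pairs among the diploids. Each replicate has its own calibration line, from reference interactions of the BCL2 family. Mating was done six times.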

The variants keep the light chain, the linker and the frameworks of Ab-14 (scFv order VH, three GGGGS repeats, VL).
VH: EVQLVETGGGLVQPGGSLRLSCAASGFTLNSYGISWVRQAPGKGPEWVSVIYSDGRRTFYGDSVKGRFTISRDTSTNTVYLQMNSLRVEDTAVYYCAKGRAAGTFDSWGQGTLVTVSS
VL: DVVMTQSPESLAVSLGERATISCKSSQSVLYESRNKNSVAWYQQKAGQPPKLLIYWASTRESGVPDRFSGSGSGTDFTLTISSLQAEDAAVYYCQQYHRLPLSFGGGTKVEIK

Variants are written as CDR1, CDR2 and CDR3 of the heavy chain (limits as in the source). Parent: GFTLNSYGIS, VIYSDGRRTFYGDSVK, GRAAGTFDS.
Variants here have more than six changes.
Values are log10 of the apparent Kd in nM; lower means stronger binding.
Replicates are averaged; those with no signal do not enter the mean.
"n.d." marks a missing value. The strain was present, yet no cells mated with the target were sequenced in that replicate, which points to weak or no binding.
A sequence measured in both rounds can read differently, since the two assays cover different ranges.

| CDR-H1 | CDR-H2 | CDR-H3 | log10 Kd (nM) by replicate | mean log10 Kd (nM) | control signals |
|---|---|---|---|---|---|
| GFDLDEYGIS | VIYADGMRTFYTDSVK | GELAGTFDA | 0.07 0.01 -0.18 0.02 0.09 0.05 | 0.01 | 0/18 |
| GFDLNEYGIS | VIYADGLRTFYSDSVK | GQSAGTFDA | -0.22 -0.08 -0.36 -0.30 -0.42 -0.26 | -0.27 | 1/18 (2.43) |
| GFDLNEYGIS | VIYADGRRTAYSDSVK | GQNAGTFDI | -0.63 -0.59 -0.76 -0.68 -1.00 -0.13 | -0.63 | 0/18 |
| GFDLNEYGIS | VIYADGRRTAYSDSVK | GEVAGTFDQ | -0.68 -0.58 -0.26 -0.73 -0.43 -0.30 | -0.50 | 0/18 |
| GFDIQEYGIS | VIYADGHRTAYTNKVK | GGISMISVT | n.d. n.d. n.d. n.d. n.d. n.d. | n.d. | 0/18 |
| GFKIDEYGIS | VIYADGMRAHYSDAVK | GVKVGNVVM | n.d. n.d. n.d. n.d. n.d. n.d. | n.d. | 0/18 |
| GFDLNEYGIS | VIYADGMRTFYADSVK | GNEAGTFDI | -0.80 -0.75 -0.97 -1.28 -1.09 -1.02 | -0.99 | 0/18 |
| GFDLNEYGIS | VIYADGMRTAYSDSVK | GNNAGTFDM | 0.12 -0.16 -0.35 -0.26 -0.09 0.21 | -0.09 | 0/18 |
| GFDINEYGIS | VIYADGNRTMYQDQVK | GGNGGSFVL | n.d. n.d. 2.36 n.d. n.d. n.d. | 2.36 | 0/18 |
| GFDINEYGIS | VIYADGMRKAYVQQVK | GQNLGDVEV | n.d. n.d. n.d. n.d. n.d. n.d. | n.d. | 0/18 |
| GFDLNEYGIS | VIYADGVRTAYADNVK | GNNAGTFDV | -0.31 -0.18 -0.21 -0.15 0.19 0.26 | -0.06 | 0/18 |
| GADIEEYGIS | VIYADGVRKYYVNSFK | GQMAGTFTG | n.d. n.d. n.d. n.d. n.d. n.d. | n.d. | 0/18 |
| GFDLNEYGIS | VIYADGKRTAYIDSVK | GNVAGTFDT | -0.79 -0.73 -0.82 -1.04 -1.24 -0.76 | -0.90 | 0/18 |
| GFDLDEYGIS | VIYADGMRTAYADNVK | GNVAGTFDI | -0.74 0.31 -1.45 -1.07 -0.88 -0.43 | -0.71 | 0/18 |
| GFDLNEYGIS | VIYADGRRTAYSDSVK | GEVAGTFVT | -0.46 -0.91 -0.80 -0.64 -0.88 -0.07 | -0.63 | 0/18 |
| GFDLNEYGIS | VIYADGMRTAYADSVK | GENAGTFDK | -0.22 -0.27 0.09 -0.29 -0.16 0.06 | -0.13 | 0/18 |
| GYDLEEYGIS | VIYADGRRAAYIENVK | DGVNDGVFV | n.d. n.d. n.d. n.d. n.d. n.d. | n.d. | 0/18 |
| GDKLEDYGIS | VIYADGRRSAYVENVK | GEYAGYFDV | n.d. n.d. n.d. n.d. n.d. n.d. | n.d. | 0/18 |
| GFDLNEYGIS | VIYADGQRTAYADSVK | GENAGTFVQ | n.d. n.d. 1.03 n.d. n.d. 1.24 | 1.14 | 0/18 |
| GFDLNEYGIS | VIYADGMRTAYSDSVK | GQVAGTFDT | -0.43 -0.60 -0.74 -0.93 -0.40 -0.60 | -0.62 | 0/18 |
| GFDLDEYGIS | VIYADGMRTAYTDSVK | GQNAGTFDI | 0.08 0.32 0.34 0.66 0.32 0.45 | 0.36 | 0/18 |
| GFDLNEYGIS | VIYADGKRTFYADSVK | GQVAGTFDL | 0.50 1.22 0.60 0.72 -0.30 0.43 | 0.53 | 2/18 (1.58) |
| GFDLNEYGIS | VIYADGRRTAYSDSVK | GGNAGFFDT | n.d. n.d. n.d. n.d. n.d. n.d. | n.d. | 1/18 (1.04) |
| GFDLNEYGIS | VIYADGVRTAYADDVK | GENAGTFDM | -0.39 -0.47 -0.31 -0.39 -0.54 -0.26 | -0.40 | 0/18 |
| GFVLNEYGIS | VIYSDGKRTMYSDSVK | GRASGTVRS | n.d. n.d. n.d. n.d. n.d. n.d. | n.d. | 0/18 |
| GDKLEDYGIS | VIYADGRRSYYVDNVK | GEYAGYFDV | n.d. n.d. n.d. n.d. 2.53 n.d. | 2.53 | 3/18 (2.33) |
| GFSLDEFGIS | VIYADGQRSAYSENVK | GQHGGFTVS | n.d. n.d. n.d. n.d. 1.39 2.08 | 1.74 | 0/18 |
| GFDLNEYGIS | VIYADGQRTAYADDVK | GETAGTFDV | -0.29 -0.24 -0.39 -0.57 -0.79 -0.25 | -0.42 | 1/18 (1.70) |
| GFDLNEYGIS | VIYADGVRTAYSDDVK | GEVAGTFDV | -0.15 -0.57 -0.43 -0.81 -0.70 -0.01 | -0.45 | 0/18 |
| GFDLDEYGIS | VIYADGVRTAYTDSVK | GNTAGTFDV | -0.06 -0.20 -0.32 -0.27 -0.02 0.37 | -0.08 | 0/18 |
| GNDLQEYGIS | VIYADGQRVNAVSQVK | GKQAGTFNL | n.d. n.d. n.d. n.d. n.d. n.d. | n.d. | 0/18 |
| GKSLDEYGIS | VIYADGSREAYSESFK | GQGAAIFML | n.d. n.d. n.d. n.d. n.d. n.d. | n.d. | 0/18 |
| GFDLNEYGIS | VIYADGKRTAYSDSVK | GNTAGTFDV | -0.53 -0.46 -0.11 -0.35 -0.61 -0.34 | -0.40 | 0/18 |
| GDDLEEYGVS | VIYADGRRSSYANSVK | GAIRGTFDS | n.d. n.d. n.d. n.d. n.d. n.d. | n.d. | 0/18 |
| GFDLDEYGIS | VIYADGMRTVYADSVK | GENAGTFDT | -0.91 0.08 n.d. -1.60 -1.23 -0.72 | -0.88 | 0/18 |
| GFNLDEYGVS | VIYADGKRTVYHDSVK | GKFLGVKLN | n.d. n.d. n.d. n.d. n.d. n.d. | n.d. | 0/18 |
| GFDLNEYGIS | VIYADGLRTQYAESFK | GDLAGYLDS | n.d. n.d. n.d. n.d. n.d. n.d. | n.d. | 1/18 (1.58) |
| GFNLNEYGIS | VIYADGRRTFYADSVK | GNNAGTFDV | -0.09 0.03 -0.17 0.12 0.16 -0.11 | -0.01 | 0/18 |
| GFNLDEYGIS | VIYADGIRTVYADQVK | GGLKMHALT | n.d. n.d. n.d. n.d. n.d. n.d. | n.d. | 0/18 |
| GFDLMEYGIS | VIYADGQRQYYANKFK | GEISASFLI | n.d. n.d. 1.61 n.d. n.d. n.d. | 1.61 | 0/18 |
| GVDIDEYGIS | VIYADGIRQFYQDKVK | GNVGGMFDT | 0.91 0.79 0.85 0.66 0.90 0.65 | 0.79 | 1/18 (2.23) |
| GFSLQEYGIS | VIYADGMRNQYANTVK | GMEAGVFVY | n.d. n.d. n.d. n.d. n.d. n.d. | n.d. | 0/18 |
| GFDINEYGIS | VIYADGRRTAYADSVK | GNQAGTFDL | 0.25 -0.28 0.34 0.64 0.08 -0.08 | 0.16 | 1/18 (1.48) |
| GFDLNEYGIS | VIYADGLRTQYASSFK | GDLAGYFMS | 1.26 0.56 0.60 0.73 1.06 1.22 | 0.91 | 2/18 (2.90) |
| GFDLNEYGIS | VIYADGMRTAYANDVK | GEVAGTFDV | -0.36 -0.59 -0.44 -0.69 -0.73 -0.61 | -0.57 | 0/18 |
| GFDLDEYGIS | VIYADGVRMAYTDRVK | GNWSGRDMY | n.d. n.d. n.d. n.d. n.d. n.d. | n.d. | 0/18 |
| GFDLNEYGIS | VIYADGKRTAYSDSVK | GGNAGTFDS | -2.03 -0.95 -0.40 -1.70 -0.81 -0.34 | -1.04 | 0/18 |
| GFDLEEYGIS | VIYADGERVFYADSVK | GGFDGYKTR | n.d. n.d. n.d. n.d. n.d. n.d. | n.d. | 0/18 |
| GFGLEEFGIS | VIYADGFRRAYAQDVK | GGTAGHFVV | n.d. n.d. n.d. n.d. n.d. n.d. | n.d. | 0/18 |
| GFEIEEYGIS | VIYADGVRTMYTDNVK | GNILGLAMT | 1.12 1.68 1.78 1.22 1.88 2.08 | 1.63 | 0/18 |

As a blank, each scFv also met three strains without target: over all heavy chain designs, 1% of these pairings were detected, typically at 2.08 and seldom below 0.84. For each scFv, signals with the empty controls are counted beside the result, with their mean in brackets.
The authors' rule: three or more of the six replicates give a measured affinity, fewer mean a poor binder.